The list shows a part of the results, in another mix than the full data. Activity calls are given as the source filed them. No stated cut-off is given here; in the data, active means activation mostly above about 9.5% (no sharp cut-off); inactive means mostly below about 7.6%.

Protein sequences, listed by entry. Tags and fused reporters are not part of them.
UniProt P47898, whole entry, looked up: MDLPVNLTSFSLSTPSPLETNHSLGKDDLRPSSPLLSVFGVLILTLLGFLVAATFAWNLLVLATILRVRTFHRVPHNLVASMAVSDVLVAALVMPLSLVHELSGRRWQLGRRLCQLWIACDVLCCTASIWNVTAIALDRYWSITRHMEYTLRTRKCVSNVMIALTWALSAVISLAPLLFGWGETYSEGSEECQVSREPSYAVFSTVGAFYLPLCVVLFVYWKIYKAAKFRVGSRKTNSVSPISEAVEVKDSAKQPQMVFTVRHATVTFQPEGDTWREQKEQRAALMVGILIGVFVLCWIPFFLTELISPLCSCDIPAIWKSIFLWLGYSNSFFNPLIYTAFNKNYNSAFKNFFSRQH

The target in this experiment is 5-hydroxytryptamine receptor 5A (Homo sapiens) (UniProt P47898). Briefly: HTR5A agonists in luminescence cell assay, primary screen, counter-screen for OPRM1-OPRD1 heterodimer agonist project, full-deck HTS (AID 504692).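 Further: 0% = cells with vehicle only and 100% = reference agonist.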 As to conditions: cell-based, at 9.3 µM, hits give high values. For orientation: Counterscreens check selectivity or assay interference.
Take `N#CCC(=O)N/N=C\c1ccc(OC/C=C/c2ccccc2)cc1`: the activation was inactive: 0.8%.

Take `CN1CCC2(CC1)Nc1nc(SCc3ccc(Cl)cc3)nn1C1=C2CN(C)CC1`: the activation is inactive: 3.22%.

On to `Cc1ccc(SCc2nc3ccccc3n2CC(=O)Nc2ccc(Cl)cc2)cc1`, for which the activation is inactive: 3.69%.

With `CCN(CC)C(=O)N1CCn2c(nc3ccccc32)C1`, the activation was inactive: 9.48%.

Turning to `O=P1(Nc2ncccn2)COc2ccccc2OC1`, the activation is inactive: 0.07%.

With `Cn1c(=O)[nH]c(=O)c2c1nc(N1CCOCC1)n2CCN1CCOCC1`, the activation is inactive: -0.19%.

With `Cc1ccc2c(c1)C1CN(C)CCC1N2C(=O)c1ccc(Br)o1` (stereo unspecified), the activation was inactive: 0.61%.

On to `COC(=O)CSc1nc2ccccc2n1CC(=O)N(C(C)C)C(C)C`, for which the activation is inactive: 1.32%.

As for `Cc1ccc2c(c1)C1CN(C)CCC1N2C(=O)/C(C#N)=C/c1ccc2c(c1)OCO2` (stereo unspecified), the activation was inactive: 3.05%.

For the molecule `CN(C)CCn1cnc2c1c(=O)[nH]c(=O)n2Cc1ccccc1`, the activation was inactive: 4.52%.

As for `N=c1n(CCN2CCOCC2)c2ccccc2n1Cc1ccccc1Br`, the activation is inactive: 0.07%.

As for `CCc1ccccc1NC(=O)CSc1nc2ccccc2n1CC(=O)N(C)C`, the activation is inactive: 1.93%.

On to `O=C(Cn1cnc2ccccc21)N/N=C/c1cccs1`, for which the activation was inactive: -0.47%.

On to `O=S(=O)(Nc1ccc2c(c1)nc1n2CCN(Cc2ccccc2)C1)c1ccc(Cl)cc1`, for which the activation was active: 11.1%.

As for `CC(C)N(C(=O)Cn1c(SCC(=O)NCc2ccc3c(c2)OCO3)nc2ccccc21)C(C)C`, the activation is inactive: -6.14%.

With `O=C1CC(N2CCC(n3c(=O)[nH]c4ccccc43)CC2)C(=O)N1c1ccc(F)cc1` (stereo unspecified), the activation was inactive: 1.78%.

Regarding `CC(c1ccccc1)N1CCn2c(nc3cc(NC(=O)c4cccs4)ccc32)C1` (stereo unspecified), the activation is inactive: 9.41%.

Regarding `Cc1ccc(OCC(=O)OC2CN3CCC2CC3)cc1` (stereo unspecified), the activation was active: 8.81%.

As for `C[C@H](O)[C@@H]1C(=O)N2CCc3ccc(N4CCN(C)CC4)cc3[C@@H]2C[C@@H]1N(C)C(=O)Nc1cc(Cl)cc(Cl)c1`, the activation was inactive: -3.2%.

In the case of `Cc1ccc(C(=O)N(C)c2ccc(OCC(=O)N3c4ccc(C)cc4C4CN(C)CCC43)cc2)cc1` (stereo unspecified), the activation was inactive: -2.81%.

On to `CCc1ccccc1NC(=O)CSc1nc2ccccc2n1CC(=O)N1CCCC1`, for which the activation is inactive: -1.81%.

As to `O=[As](O)(c1cccs1)c1cccs1`, the activation is inactive: 6.46%.

In the case of `NC(=O)Cn1c(S(=O)(=O)Cc2ccccc2)nc2ccccc21`, the activation is inactive: -0.91%.

For `CCC(=O)N1CCn2c1nc1ccccc12`, the activation was inactive: 6.94%.

As to `O=C(NCCn1c(-c2ccncc2)nc2ccccc21)[C@H]1CCCN1c1nc(CN2CCCCC2)cs1`, the activation is inactive: -2.26%.

As for `Cc1cc(NC(=O)Cn2cnc3c2c(=O)n(C)c(=O)n3C)n(-c2ccccc2)n1`, the activation is inactive: 0.86%.

Consider `NS(=O)(=O)c1cccc(NC(=O)COC(=O)C(O)(c2ccccc2)c2ccccc2)c1`, for which the activation was inactive: -1.41%.

In the case of `O=P1(Nc2ccc(Br)cn2)COc2ccccc2OC1`, the activation was inactive: -1.52%.

For the molecule `Cc1ccc2c(c1)C1CN(C)CCC1N2C(=O)c1ccccc1NS(=O)(=O)c1ccc(F)cc1C` (stereo unspecified), the activation was inactive: -1.81%.

`COC(=O)[C@H](Cc1ccc(O)cc1)NC(=O)Cn1cnc2c(OCc3ccccc3)ncnc21`: the activation is inactive: -1.13%.

With `CC(C)C[C@H](NC(=O)N1CCn2c1nc1ccccc12)C(=O)NCc1ccco1`, the activation is inactive: -2.21%.

Turning to `Cc1ccc(S(=O)(=O)N2CCN(C(=O)Cn3cnc4c3c(=O)n(C)c(=O)n4C)CC2)cc1C`, the activation was inactive: -3.21%.

As to `Cn1c(CNc2nc3ccccc3n2CCN2CCCCC2)nc2ccccc21`, the activation was inactive: -2.23%.

In the case of `Cc1ccc2c(c1)C1CN(C)CCC1N2C(=O)Cn1nnc(-c2ccccc2F)n1` (stereo unspecified), the activation was inactive: -0.15%.

On to `CCOCN(C(=O)Cn1c(COC)nc2ccccc21)c1c(C)cccc1CC`, for which the activation is inactive: -6.68%.

Consider `Nc1cccc([As](=O)(O)c2ccccc2)c1`, for which the activation was inactive: 3.07%.

`Cc1ccc2c(c1)C1C[N+](C)(CC(=O)Nc3ccccc3Cl)CCC1N2C(=O)c1ccccc1Cl` (stereo unspecified): the activation is inactive: -0.99%.

For `Cc1ccc(NC(=O)Cn2cnc3c(NCc4ccccc4)ncnc32)cc1C`, the activation was inactive: -2.37%.

For `CSc1nc(N)nc2c1ncn2CC(=O)NCC1CCCO1` (stereo unspecified), the activation is inactive: -2.3%.

As to `Cn1c(=O)[nH]c(=O)c2c1nc(CN1CCN(c3cccc(Cl)c3)CC1)n2CCN1CCOCC1`, the activation was inactive: -3.32%.

With `COc1ccccc1N1CCN(C(=O)Cn2cnc3c2c(=O)n(C)c(=O)n3C)CC1`, the activation was inactive: -5.74%.

On to `Cn1c(=O)c2c(ncn2CC(=O)Nc2ccc(Cl)cc2Cl)n(C)c1=O`, for which the activation is inactive: -4.29%.

In the case of `Cn1c(=O)c2c(ncn2CC(=O)Nc2ccccc2Sc2ccccc2)n(C)c1=O`, the activation is inactive: 1.25%.

In the case of `Cn1c(=O)c2ncn(CC(=O)NCCOCc3ccccc3Cl)c2n(C)c1=O`, the activation is inactive: 8.16%.

`O=C(Cn1c(-c2ccccc2Cl)nc2ccccc21)Nc1cccc(Cl)c1`: the activation is inactive: -2.5%.

With `O=C(Cn1cnc2ccccc21)Nc1cc(C(F)(F)F)ccc1N1CCOCC1`, the activation was inactive: 2.11%.

As to `O=C(Cn1c(SCC(=O)N2CCc3ccccc32)nc2ccccc21)NC1CCCC1`, the activation is inactive: 8.54%.

Turning to `CC(C)(C)NC(=O)Cn1c(SCC(=O)NCc2cccs2)nc2ccccc21`, the activation was inactive: -0.81%.

As for `O=C(Cn1c(=O)n(CC2CS2)c2ccccc21)N1CCCCCC1` (stereo unspecified), the activation was inactive: -3.46%.

Regarding `CCn1cc(Cl)c(C(=O)Nc2nc3ccccc3n2CCN2CCCCC2)n1`, the activation is inactive: -0.35%.

As for `CCCC(=O)Nc1ccc(C(=O)/C=C/c2ccc(SC)cc2)cc1`, the activation was inactive: 2.02%.

With `O=C(Cn1c(C(F)(F)F)nc2ccccc21)NCCN1CCCC1`, the activation is inactive: 3.28%.

For the molecule `c1ccc2c(c1)nc(-c1ccncc1)n2CCNc1nc(CN2CCCCC2)cs1`, the activation was inactive: -2.16%.

For the molecule `Cc1cccc(C)c1NC(=O)N1CCC(n2c(=O)[nH]c3ccccc32)CC1`, the activation was inactive: 1.17%.

On to `Cc1cccc(Cn2c(=O)c3c(nc4n3CCN4Cc3ccco3)n(C)c2=O)c1`, for which the activation was inactive: 0.2%.

Regarding `Cc1nn(-c2ccccc2)c2c1P(=O)(N1CCOCC1)N(C)C(c1ccccc1)=N2` (stereo unspecified), the activation is inactive: 0.31%.

Values taken from PubChem BioAssay AID504692 (The Scripps Research Institute Molecular Screening Center, 2011).
